Data reported in US5250538A, “Indole derivatives and their use” (Novo Nordisk A/S, priority 1990, dated 1993).

Sequences of proteins named here, by UniProt entry; tags and fusion partners are left off.
UniProt P28564, whole entry: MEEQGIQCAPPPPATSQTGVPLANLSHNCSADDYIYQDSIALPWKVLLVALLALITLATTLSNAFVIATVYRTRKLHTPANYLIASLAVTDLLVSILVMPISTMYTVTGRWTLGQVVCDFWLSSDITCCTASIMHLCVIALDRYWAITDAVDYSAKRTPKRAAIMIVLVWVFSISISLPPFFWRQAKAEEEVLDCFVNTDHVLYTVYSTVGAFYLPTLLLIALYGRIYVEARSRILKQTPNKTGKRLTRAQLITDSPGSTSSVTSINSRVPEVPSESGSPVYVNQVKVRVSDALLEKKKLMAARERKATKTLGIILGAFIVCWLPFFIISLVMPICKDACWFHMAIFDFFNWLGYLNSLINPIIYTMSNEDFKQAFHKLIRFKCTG

Molecular target: T1, 5-HT1B (Rattus norvegicus, UniProt P28564)
T1 construct: from tissue
Assay: 5-HT1B receptor binding in vitro (3H-5-HT, 50 nM 8-OH-DPAT included)
Description: Compounds of the general formula (I) were tested for binding to 5-HT receptors and compared with known ligands by the following procedure:
Rat brain tissue (as specified in the table hereinafter) was homogenized using a Polytron homogenizer. The final pellet was resuspended in 125 vol (tissue wet weight) of buffer.
In all assays incubation was carried out for 10 min at 37° C.
Labelling of the 5-HT1B receptor was complicated by the fact that the available ligand ^3 H-5-HT is nonselective.
Detailed conditions for the receptor binding assay in vitro are tabulated below.

In the case of `CCCN(CCC)C1CCc2cccc(O)c2C1` (stereo not shown) [Example 8-OH-DPAT, 8-hydroxy-2-(di-n-propylamino)tetralin, reference compound], the IC50 is reported as over 1 µM.
